{"sequences": {"note": "By UniProt entry, the sequences of proteins in these tests, tags left out.", "UniProt P31390, whole entry": "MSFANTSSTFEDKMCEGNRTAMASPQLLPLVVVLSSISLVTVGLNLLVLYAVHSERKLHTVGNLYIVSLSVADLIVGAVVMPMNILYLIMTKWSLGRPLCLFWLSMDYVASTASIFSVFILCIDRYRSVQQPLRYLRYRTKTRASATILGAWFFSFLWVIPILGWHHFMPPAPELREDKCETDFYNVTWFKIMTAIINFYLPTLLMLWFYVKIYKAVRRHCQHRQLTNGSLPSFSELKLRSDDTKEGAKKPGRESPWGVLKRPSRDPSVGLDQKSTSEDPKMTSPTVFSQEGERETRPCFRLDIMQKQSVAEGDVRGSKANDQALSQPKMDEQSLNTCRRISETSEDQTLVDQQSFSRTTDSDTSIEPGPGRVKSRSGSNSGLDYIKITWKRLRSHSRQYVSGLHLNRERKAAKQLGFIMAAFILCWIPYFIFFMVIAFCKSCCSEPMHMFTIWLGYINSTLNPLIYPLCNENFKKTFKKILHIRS"}, "source": "ChEMBL document CHEMBL1125750", "about": "“Dual antagonists of platelet activating factor and histamine. Identification of structural requirements for dual activity of N-Acyl-4-(5,6-dihydro-11H-benzo [5,6]cyclohepta-[1,2-b]pyridin-11-ylidene)piperidines” (J Med Chem, 1991)", "molecular_target": "Histamine H1 receptor (Rattus norvegicus, UniProt P31390)", "test": "Binding affinity to histamine H1 receptor in rat brain membranes was evaluated using [3H]-pyrilamine as radioligand", "format": "cell membranes", "note": "pKi: −log10 of the molar value.", "data": [{"smiles": "CN(C)CCC(c1ccc(Cl)cc1)c1ccccn1", "note": "(stereo unspecified) [CHLORPHENIRAMINE]", "values": [{"measurement": "pKi", "value": 8.26}]}]}
